# PubChem BioAssay AID588856 (National Center for Advancing Translational Sciences (NCATS), 2011)
# This is a selection; strong and weak results do not stand in their true shares. Calls of active or inactive are those of the source. Calls follow the shape of the dose curve; as a rule, active = well fitted cell-killing curve with a large enough effect; inactive = no such curve, though single readings can be large or run the other way.
# Assay: qHTS for Inhibitors of TGF-b: Cytotox Counterscreen
# Conditions: HepG2 CAGA-GFP viability, ATP luminescence, 18 h; series mostly up to 46.1 µM; activity change, negative = cytotoxicity: at the top concentration
# Excerpt: TGF-b is a main component in the TGF-b signaling pathway which plays diverse roles in cellular and development pathways. TGF-b is mediated by transcription factors called "Smads". Although the Smad-dependent pathway is the primary canonical TGF-b signaling mode, TGF-b1 can also activate alternative signaling pathways, including those involving MAPK (ERK, JNK and p38). This interaction may mediate or enhance Smad-dependent responses, or can exert Smad-independent effects. The complexity of this signaling cascade allows the TGF-b superfamily to perform unique, overlapping or redundant functions. We believe that targeting the TGF-beta pathway at the Smad-transcription factor level may eliminate the consequences of disrupting the entire pathway and offer specificity without affecting other signaling pathways. Smad3 is the primary transducer of TGF-b's signals and Smad3 regulates many functions attributed to TGF-b signaling. We hypothesize that Smad3 inhibitors will selectively eliminate Smad3-specific TGF-beta signals without undesired off-target effects. We aim to identify Smad3-small molecule antagonists using a quantitative high throughput screening (qHTS) approach.
# A high-throughput assay was developed to screen the NIH Molecular Libraries Small Molecule Repository (MLSMR). This is a cell based assay, where TGF-b is tagged with GFP. This is a counterscreen that evaluates the cytotoxicity of the compounds that were screened in the primary cell-based screen (AID 588855).
# MH087449NIH Chemical Genomics Center [NCGC]
# NIH Molecular Libraries Probe Centers Network [MLPCN]
# Assay Submitter (PI): Sushil Rane, National Institute of […]
# Suspensions of trypsinized HEPG2 CAGA-GFP cells were dispensed into white, tissue culture-treated, solid 1536-well plates at 5uL/well (1000 cells/well final concentration) in DMEM medium supplemented with 1% FBS. Plates were incubated at 37 degrees C for 2 hours, after which 23 nL of compounds or DMSO were delivered to each well using a pin tool. One uL of recombinant TGF-beta in DMEM (1% FBS) was then dispensed (500 pg/mL final concentration), and plates were incubated at 37 degrees C for 18 hours. Two uL of CellTiter Glo (Promega), a luminescence-based viability reagent, was dispensed, followed by a 10 minute room temperature incubation. The plates were then measured on a PerkinElmer ViewLux plate reader for luminescence (clear filter) using a 5 second exposure. The %Activity was determined from the corrected luminescence values. Wells containing media only (no cells) were used to normalize %Activity of identified toxic compounds; media-only wells corresponded to 100%Activity (complete cell-killing), while DMSO-dosed cell controls were used to normalize 0%Activity (no toxicity).
# Concentration-response curves were fitted to the signals arising from the resulting luminescence. The concentration-effect curves were then classified based on curve quality (r2), response magnitude and degree of measured activity, and compounds were subsequently categorized based on their curve class.
row,SMILES,"activity change, negative = cytotoxicity"
1,CP(=O)(Nc1ccccc1)Oc1ccc(F)cc1 (centres undefined),inactive: 5.26%
2,COc1ccc(OP(C)(=O)Nc2ccc(SC(F)(F)F)cc2)cc1 (centres undefined),inactive: 0%
3,CCOC(=O)c1ccc(NP(C)(=O)Oc2ccc(F)cc2)cc1 (centres undefined),inactive: 2.48%
4,CC1=NCCc2c1[nH]c1ccccc21.O=[N+]([O-])c1cc([N+](=O)[O-])c(O)c([N+](=O)[O-])c1,inactive: -8.6%
5,CP(=O)(Nc1cccc(Br)c1)Oc1ccccc1 (centres undefined),inactive: -19.7%
6,Cc1cc(C)cc(OP(C)(=O)Nc2ccccn2)c1 (centres undefined),inactive: 3.54%
7,Cc1ccc(C)c(NP(C)(=O)Oc2ccccc2)c1 (centres undefined),inactive: -13.5%
8,COc1ccccc1OP(C)(=O)Nc1cccc(Br)c1 (centres undefined),inactive: -3.82%
9,Cc1cc(C)cc(OP(C)(=O)Nc2ccc(C)cc2C)c1 (centres undefined),inactive: -16.7%
10,CCOC(=O)c1ccc(NP(C)(=O)Oc2cc(C)cc(C)c2)cc1 (centres undefined),inactive: 1.7%
11,O=[N+]([O-])c1cc([N+](=O)[O-])c(-c2cnn(-c3ccccc3)c2)c([N+](=O)[O-])c1,inactive: -93%
12,Cc1nc2ccc3ccccc3c2s1.O=[N+]([O-])c1cc([N+](=O)[O-])c(O)c([N+](=O)[O-])c1,inactive: 5.82%
13,O=[N+]([O-])c1cc([N+](=O)[O-])c(-n2nnc3ccccc32)c([N+](=O)[O-])c1,inactive: -14.3%
14,CN(Cc1cccnc1)C(=O)COc1ccc(Cl)c(Cl)c1.O=[N+]([O-])c1cc([N+](=O)[O-])c(O)c([N+](=O)[O-])c1,inactive: 0.0136%
15,COc1ccccc1OP(C)(=O)Nc1c(C)cccc1C (centres undefined),inactive: -13%
16,CN1CCCCC1COC(=O)C1(O)c2ccccc2CCc2ccccc21 (centres undefined),inactive: -28.7%
17,CP(=O)(Nc1ccc(SC(F)(F)F)cc1)Oc1ccccc1 (centres undefined),inactive: 2.69%
18,CCCOc1ccc(NP(C)(=O)Oc2ccc(Cl)cc2)cc1 (centres undefined),inactive: -2.64%
19,O=[N+]([O-])c1cc([N+](=O)[O-])c(Nc2nnnn2CCO)c([N+](=O)[O-])c1,inactive: -5.92%
20,CC1=C2N=C(C=C3N=C(C(C)=C4[N-][C@@](C)([C@@H]5N=C1[C@](C)(CCC(=O)NC[C@@H](C)OP(=O)([O-])O[C@H]1[C@@H](O)[C@@H](n6cnc7cc(C)c(C)cc76)O[C@@H]1CO)[C@H]5CC(N)=O)[C@@](C)(CC(N)=O)[C@@H]4CCC(N)=O)[C@@](C)(CC(N)=O)[C@@H]3CCC(N)=O)C(C)(C)[C@@H]2CCC(N)=O.[C-]#N.[Co+3],inactive: -6.8%
21,CP(=S)(Nn1cnnc1)Oc1ccccc1 (centres undefined),inactive: -13.1%
22,COc1ccccc1OP(C)(=O)Nc1ccccc1 (centres undefined),inactive: 5.72%

row,SMILES,"activity change, negative = cytotoxicity"
1,CP(=O)(Nc1ccccc1Br)Oc1ccccc1 (centres undefined),inactive: -14.5%
2,CCOP(C)(=S)SCC(=O)NC(C)C(=O)O (centres undefined),inactive: 11.1%
3,CCOC(=O)c1ccc(NP(C)(=O)Oc2ccc(OC)cc2)cc1 (centres undefined),inactive: 1.53%
4,O=[N+]([O-])c1cc([N+](=O)[O-])c(O)c([N+](=O)[O-])c1.c1ccc(Oc2ccncc2)cc1,inactive: 0.0265%
5,CP(=O)(Nc1ccccn1)Oc1ccc(Cl)cc1 (centres undefined),inactive: 9.39%
6,Cc1cccc(C)c1OP(C)(=O)Nc1ccc(SC(F)(F)F)cc1 (centres undefined),inactive: -3.51%
7,CP(=O)(Nc1ccc(SC(F)(F)F)cc1)Oc1ccc(Cl)cc1 (centres undefined),inactive: -88.7%
8,CP(=O)(Oc1ccccc1)OC(c1ccccc1)C(F)(F)F (centres undefined),inactive: -9.42%
9,CCc1ccc(OP(C)(=O)N2CCN(c3ccc([N+](=O)[O-])cc3)CC2)cc1 (centres undefined),inactive: -27.6%
10,CP(=O)(NC(=O)Nc1ccccc1)Oc1ccccc1 (centres undefined),inactive: 4.32%
11,Cc1cc(C)cc(OP(C)(=O)Nc2ccc(SC(F)(F)F)cc2)c1 (centres undefined),inactive: -40.4%
12,CCN(CC)CCCOC(=O)C(O)(c1ccccc1)c1ccccc1,inactive: -21.7%
13,CCOC(=O)c1ccc(NP(C)(=O)Oc2ccccc2)cc1 (centres undefined),inactive: -4.29%
14,COc1ccccc1OP(C)(=O)Nc1ccc(C)cc1 (centres undefined),inactive: -0.291%
15,Cc1ccc(NP(C)(=O)Oc2ccccc2)c(C)c1 (centres undefined),inactive: 9.48%
16,COc1ccccc1OP(C)(=O)Nc1cc(Cl)ccc1C (centres undefined),inactive: -24.3%
17,COc1ccc(OP(C)(=O)Nc2cccc(F)c2)cc1 (centres undefined),inactive: -3.81%
18,Cc1cc(C)cc(OP(C)(N)=O)c1 (centres undefined),inactive: 2.41%
19,O=[N+]([O-])c1cc([N+](=O)[O-])c(Nc2cccnc2)c([N+](=O)[O-])c1,inactive: -106%
20,CC(C)(C)c1ccc(OP(C)(=O)Nc2ccc(SC(F)(F)F)cc2)cc1 (centres undefined),inactive: -114%
21,Cc1cccc(C)c1OP(C)(N)=O (centres undefined),inactive: -1.9%
22,O=[N+]([O-])c1ccc2c(c1)C=Nc1ccccc1O2,inactive: -14.3%
